Key:
Format in all cases: in vivo, human
[1] = Example 1: biochemical indices of the blood (Al-AT, As-AT, bilirubin)
Description: (§1) Eleven patients with chronic HCV infection (measured by HCV serum RNA PCR) and liver disease (measure by elevated levels of Asp and Ala transaminases), were treated with injections of recombinant alpha2 interferon plus 2 mg HEP1/5 ml water solution by mouth twice a day (Treatment Group). Ten patients with chronic HCV infection were treated with recombinant alpha2 interferon alone (Control Group).
(§2) 21 patients (12 women, 9 men) aged from 18 to 55 years, sick with chronic hepatitis C participated in the study at The Gastroenterological Center in the Clinical Infectious Hospital No 1, Moscow. The diagnosis of chronic hepatitis C was based on the presence of specific antibodies to HCV in the blood of the patients during at least 6 months. The presence of HCV RNA in the peripheral blood was determined by PCR (polymerase chain reaction), and in all patients in the trial were in the replication phase of HCV infection. According to clinical data, and to the results of a biochemical study of the blood, in the majority of patients a moderate activity of chronic hepatitis C disease was well established.
(§3) All patients who participated in this investigation were treated with a recombinant alpha interferon (reaferon) at a dose of 3 millions units, 3 times a week. In addition to the background interferon therapy, 11 patients were treated with HEP1, 2 mg orally (the preparation was dissolved in 5 ml of water, held 2-3 min in the mouth, then swallowed) once a day, daily during 3 months. Patients were divided into 2 groups, i.e. the Treatment Group (11 patients who obtained the combination of interferon antiviral therapy with HEP1) and the Control Group (10 people patients who obtained interferon antiviral therapy only).
(§4) Treatment within the framework of the investigation continued for 3 months. […] For the duration of this study, all patients attended the designated doctor not less than 4 times, directly before beginning treatment, and 1, 2 and 3 months after the beginning of treatment. Within the same period, in addition to the clinical inspection, clinical and biochemical analyses of the blood were conducted, and viral load was assessed by HCV RNA in a semi-quantitative PCR assay. The final estimation of efficacy of the treatment was conducted 3 months after the beginning of treatment. The criteria for efficacy were prevalence of symptoms; frequency of an improvement (or normalization) in the activity of hepatic enzymes Al-AT, As-AT, gamma GT; frequency of improvement in the clinical indices of the blood; and results of PCR analysis of HCV RNA (viral replication). Statistical processing of the results of treatment was conducted with the use of a computer program called ‘Statgraphics’.
The patients who participated in the study were sick with chronic hepatitis C, and suffered from a moderate increase in the level of Al-AT and As-AT in the blood, an indication of the destructive inflammation of the hepatocytes. In both groups, after only 1 month of treatment, a significant decrease in the level of Al-AT and As-AT in the blood occurred, which continued during the next month. […] The average values of general bilirubin in both groups of patients were above the upper boundary of normal levels. In the course of treatment, the level of general bilirubin of the blood decreased by 15-20% to normal values.

[2] = test system: HCV; assay: Example 1: HCV RNA viral load by semi-quantitative PCR in chronic hepatitis C patients
Description: as §1, §2, §3, §4
In all 21 patients investigated, a semi-quantitative PCR estimation of the level of HCV RNA in the blood was performed and the titre of HCV RNA varied from 10^3 to 10^4 at the start of the study. In the Control Group, after 3 months of treatment, in 7 (70%) of 10 people the titres of HCV RNA were reliably lower than the pretreatment levels. HCV RNA ceased to be detected in 2 (20%) of 10 patients. On average, the titre of HCV RNA was reduced by 1.3 log in the Control Group.

[3] = Example 1: hematological / immunology indices of the blood
Description: as §1, §2, §3, §4
The side-effects of prolonged therapy with recombinant interferon appear in changes in a number of indices of the blood.

[4] = Example 1: clinical symptoms and interferon side-effects in chronic hepatitis C patients
Description: as §1, §2, §3, §4
During the course of treatment, the presence and the manifestation of dyspeptic phenomena were evaluated (pain in the right subcostal area, bitterness in the mouth), asthenovegetative symptoms (weakness, irritability) and arthralgia. In the Control Group, the frequency of complaints of expressed general weakness grew from 50% to 80%, irritability from 0 to 100%, and arthralgia from 0 to 90%. Related deterioration in the health of patients during the course of interferon therapy can be explained by the widely known side-effects caused by all preparations of interferon.

[5] = in the course of 3 months of treatment

Q: Which results are given for “Interferon only: recombinant alpha interferon (reaferon), 3 millions units, 3 times a week”?
A: Ala Trans ([1]; Before treatment, group mean): 194.7; Asp Trans ([1]; Before treatment, group mean): 97.1; Ala Trans ([1]; Month 1): 90.7; Asp Trans ([1]; Month 1): 72.2; Ala Trans ([1]; Month 2): 62.4; Asp Trans ([1]; Month 2): 53.7; Ala Trans ([1]; Month 3): 71.5; Asp Trans ([1]; Month 3): 63; course of Al-AT and As-AT levels in the blood ([1]; over 3 months, in words): tended to increase again in the third month; transaminase levels in the blood ([1]; summary in words): still had significantly elevated level of transaminases in the blood; HCV_RNA Log load ([2]; Before treatment, group mean): 3.5 Log; HCV_RNA Log load ([2]; Month 3, group mean): 2.2 Log; average reduction of titre of HCV RNA ([2]; after 3 months of treatment): 1.3 log; patients in whom HCV RNA ceased to be detected ([2]; after 3 months of treatment): 20%; patients who failed to respond to treatment ([2]; after 3 months of treatment): 30%; patients with titres of HCV RNA reliably lower than pretreatment levels ([2]; after 3 months of treatment): 70%; increase in the viral load during treatment ([2]; in words): in one of these patients the level of virus increased 10 times; Leucocytes ([3]; Before treatment, group mean): 6.09; Lymphocytes ([3]; Before treatment, group mean): 26.3; Monocytes ([3]; Before treatment, group mean): 5.4; Leucocytes ([3]; Month 1): 4.7; Lymphocytes ([3]; Month 1): 29.1; Monocytes ([3]; Month 1): 5.1; Leucocytes ([3]; Month 2): 4.11; Lymphocytes ([3]; Month 2): 31; Monocytes ([3]; Month 2): 6.4; Leucocytes ([3]; Month 3): 4.51; Lymphocytes ([3]; Month 3): 37.5; Monocytes ([3]; Month 3): 4.7; hematological indices (hemoglobin, thrombocytes, neutrophils, granulocytes, eosinophils, lymphocytes, macrophages/monocytes) ([3]; during 3 months of treatment, in words): significant reduction in the maintenance of hemoglobin levels, the number of thrombocytes and especially in the quantity of mature neutrophilic granulocytes; Weakness, % of patient group ([4]; Before treatment, group mean): 50%; Bitter taste, % of patient group ([4]; Month 1): 70%; Pain, % of patient group ([4]; Month 1): 80%; Weakness, % of patient group ([4]; Month 1): 50%; aching joints, % of patient group ([4]; Month 1): 0%; Bitter taste, % of patient group ([4]; Month 2): 80%; Pain, % of patient group ([4]; Month 2): 70%; Weakness, % of patient group ([4]; Month 2): 70%; aching joints, % of patient group ([4]; Month 2): 20%; Bitter taste, % of patient group ([4]; Month 3): 80%; Pain, % of patient group ([4]; Month 3): 70%; Weakness, % of patient group ([4]; Month 3): 80%; aching joints, % of patient group ([4]; Month 3): 90%; Bitter taste, % of patient group ([4]; before treatment): 80%; Pain, % of patient group ([4]; before treatment): 70%; aching joints, % of patient group ([4]; before treatment): 0%; frequency of arthralgia ([4]; before treatment): 0%; frequency of complaints of general weakness ([4]; before treatment): 50%; frequency of irritability ([4]; before treatment): 0%; frequency of complaints of pain in the right subcostal area ([4]; during the course of 3 months of treatment): did not change; frequency of arthralgia [4, 5]: 90%; frequency of complaints of general weakness [4, 5]: 80%; frequency of irritability [4, 5]: 100%

From patent publication US20060067913A1, “HCV therapy” (priority 2003, published 2006)
